From PubChem BioAssay AID488924 (Johns Hopkins Ion Channel Center, 2010) come the findings set out here.

This is a selection; strong and weak results do not stand in their true shares. The source made the active and inactive calls.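 The calls were made as follows: active = membrane potential signal moves up or down beyond 5 SD from buffer-only wells, on both duplicate plates; inactive = the rest.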

The assay in a line: parental HEK293 membrane potential modulation, confirmation, counter-screen for TRPC6 modulator project, cell-based (AID 488924). As to conditions: parental HEK293, membrane potential dye fluorescence; at 10 µM.
As to `CCN(CC)CC(O)COC(=O)C(O)(c1ccccc1)C1CCCCC1` (configuration not stated), the membrane potential signal change was active: 106%. `CCN(CC)CCCOC(=O)C(O)(c1ccccc1)c1ccccc1`: the membrane potential signal change result is “inactive”.
